Reference: patent US6933298B2, “Pyridine-2,4-dicarboxylic acid diamides and pyrimidine-4,6-dicarboxylic acid diamides and the use thereof for selectively inhibiting collagenases” (Aventis Pharma Deutschland GmbH, priority 2001, dated 2005)

Target: T1, catalytic domain of human collagenase-3 (MMP-13) (Homo sapiens, UniProt P45452)
T1 construct: Determining the enzymic activity of the catalytic domain of human collagenase-3 (MMP-13); purchased INVITEK, Berlin 30 100 803
Assay: Enzymic activity of the catalytic domain of human collagenase-3 (MMP-13), fluorogenic substrate
Type: biochemical
Settings: activated with APMA, pH 7.5, read-out: IC50 MMP13
Procedure: Determining the enzymic activity of the catalytic domain of human collagenase-3 (MMP-13).
Activation of the proenzyme:
2 parts by volume of proenzyme are incubated with 1 part by volume of APMA solution at 37° C. for 1.5 hours. The APMA solution is prepared from a 10 mmol/l solution of p-aminophenylmercuric acetate in 0.1 mmol/l NaOH by diluting it with 3 parts by volume of Tris/HCl buffer, pH 7.5 (see below). The pH is adjusted to between 7.0 and 7.5 by adding 1 mmol/l HCl.
In order to measure the enzyme activity, 10 μl of enzyme solution are incubated for 15 minutes with 10 μl of a buffered 3% (v/v) solution of dimethyl sulfoxide (reaction 1). In order to measure the enzyme inhibitor activity, 10 μl of enzyme solution are incubated with 10 μl of a buffered 3% (v/v) solution of dimethyl sulfoxide which contains the enzyme inhibitor (reaction 2).
The enzyme activity is presented as increase in extinction/minute.
The buffer solution contains 0.05% Brij (Sigma, Deisenhofen, Germany) and also 0.1 mol of Tris/HCl/l, 0.1 mol of NaCl/1 and 0.01 mol of CaCl2/l (pH=7.5).
The substrate solution contains 0.75 mmol of the fluorogenic substrate (7-methoxycoumarin-4-yl)acetyl-Pro-Leu-Gly-Leu-3-(2′,4′-dinitrophenyl)-L-2,3-diaminopropionyl-Ala-Arg-NH2/I(Bachem, Heidelberg, Germany).

**Q.** How did the IC50 turn out when `Cc1cccc(CNC(=O)c2cc(C(=O)NCc3cccc(C)c3)ncn2)c1` [Example 18] was run?
**A.** The IC50 was 72 nM.
